Data from patent publication US20220041603A1, “SRC INHIBITOR COMPOUNDS FOR SKELETAL MUSCLE MODULATION, METHODS AND USES THEREOF” (SOCIETE DES PRODUITS NESTLE S.A., priority 2018, published 2022).

Test system: human primary muscle cells
Test: Assay for myogenesis (troponin-T myotube detection)
Type: cell-based
Settings: human primary myoblasts, donor 8 and donor 4; dose dependent response; compound treatment 96 hours after differentiation induction
Experimental: The inventors developed a high content screening to test in vitro compounds on human primary adult muscle cells. Human Skeletal Muscle Myoblasts (HSMM) were purchased from Lonza (https://bioscience.lonza.com). These cells were isolated from the upper arm or leg muscle tissue of normal donors and used after the second passage. Several donors were tested to ensure cell viability and purity before selecting the final donors, which are a person (Donor 8) and a person (Donor 4).
In order to confirm the results from the primary assay described above, a secondary assay for myogenesis in vitro on all the hits obtained in this primary screening assay. This secondary assay focused on the later stage of myogenesis when the muscle cells fuse together and form multinucleated myotubes. […]
Fusion factor, which is the % of nuclei that are inside the multinucleated myotubes compare to total nuclei and give a readout for muscle cell differentiation.
Myotube area, which is measured based on the Troponin T staining and give a readout on the myotube size and muscle fiber growth.
Human primary myoblasts were seeded in 384 well plates at a density of 3′000 cells per well in skeletal muscle growth medium (SKM-M, AMSbio). […] Custom module analysis based on Multi-Wavelength Cell Scoring of the MetaXpress software was used for quantification. […]

## Cc1ccc(-c2nn(C(C)(C)C)c3ncnc(N)c23)cc1 [PP1, 1-(1,1-Dimethylethyl)-3-(4-methylphenyl)-1H-pyrazolo[3,4-d]pyrimidin-4-amine]
  myofiber growth (area covered by troponinT-positive myotubes): enhances

## CC(C)(C)n1nc(-c2ccc(Cl)cc2)c2c(N)ncnc21 [PP2, 3-(4-Chlorophenyl)-1-(1,1-dimethylethyl)-1H-pyrazolo[3,4-d]pyrimidin-4-amine]
  myofiber growth (area covered by troponinT-positive myotubes): enhances
